Test results as given in PubChem BioAssay (Tox21).
Values joined by “and” are separate entries in the source; they are usually repeats but may differ in a detail not shown here. Equal entries are not always repeated. This is a selection; strong and weak results do not stand in their true shares. Records with an inconclusive call do not appear. Active and inactive are the calls of the source. The call rests on the fitted dose curve; in most records, active means well fitted cell-killing curve with a large enough effect in the repeat runs; inconclusive means weak or mixed curves, or effect the other way; inactive means flat fitted curve, though single readings scatter.

assay: cAMP Responsive Elements (CRE) small molecule agonists, cell-based qHTS assay: qHTS cell viability counter screen (AID 2060914); details: CRE-bla HEK293T viability, CellTiter-Glo luminescence, 5 h; at 42.5 µM (top of the series);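 further: viability read after 3 h of compound exposure; nearly all actives have a fitted effect of over 50% in size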
From the text: National Center for Advancing Translational Sciences [NCATS]
Division of Preclinical Innovation [DPI]
U.S. Environmental Protection Agency [EPA]
National Institutes of Environmental Health Sciences [NIEHS]
National Toxicology Program [NTP]
U.S. Food and Drug Administration [FDA]
CREB (cyclic-AMP Responsive Element Binding Protein) is a cellular transcription factor. It binds to certain DNA sequences called cAMP Responsive Elements (CRE) and regulates the transcription of the genes. […] This cell line can be used to find agonists/antagonists of the cyclic AMP signaling pathway. The activation of the report gene under culture conditions can be detected by fluorescence intensity. This cell line has been used to screen the Tox21 10K compound library to identify agonists that induce oxidative stress. The cytotoxicity of the Tox21 compound library against the CRE-bla cell line was tested in parallel by measuring the cell viability using CellTiter-Glo assay (Promega, Madison, WI) in the same wells.
Tox21 Assay Protocol Summary:
CRE-bla Hek 293T cells were suspended in assay medium (DMEM containing 10% dialyzed FBS, 0.1 mM NEAA, 1 mM sodium pyruvate and 25 mM HEPES) and dispensed at 2,000 cells/5 uL /well into 1536-well black wall/clear bottom plates using a Multidrop Combi (ThermoFisher Scientific, Waltham, MA) dispenser. After the assay plates were incubated at 37 C/5% CO2 for 18 hrs, 23 nL of compounds dissolved in DMSO, positive controls or DMSO only was transferred to the assay plate by a pintool workstation (Kalypsys, San Diego, CA). After the plates were incubated at 37 C/5% CO2 for 3 hrs, 1 uL of LiveBLAzer B/G FRET substrate (Invitrogen, Carlsbad, CA) was added to each well using Bioraptr Flying Reagent Dispenser (FRD, Aurora Discovery, San Diego, CA). The plates were incubated at room temperature for 2 h, then fluorescence intensities were measured using an Envision plate reader (PerkinElmer, Shelton, CT) at Excitation 405nm, Emission 460nm and 530nm. The % activity was determined from the ratio of 460nm/530nm. For cell viability readout that measures cytotoxicity, 4 uL /well of CellTiter-Glo reagent was added into the assay plates using Bioraptr FRD. After 30 min incubation at room temperature, the luminescence intensity in the assay plates was measured using a ViewLux (PerkinElmer, Shelton, CT) plate reader.
On the % scale 0 is the no-effect control and ±100 the full control effect.

SMILES | activity change, negative = cytotoxicity
OCCSCCO | inactive: -8.88%

same assay, conditions: CRE-bla HEK293T viability, CellTiter-Glo luminescence, 5 h; at 92.4 µM (top of the series)

SMILES | activity change, negative = cytotoxicity
OCCSCCO | inactive: -0.107%

same assay, conditions: CRE-bla HEK293T viability, CellTiter-Glo luminescence, 5 h; at 92.4 µM (top of the series) unless noted

SMILES | activity change, negative = cytotoxicity
CCOP(=O)(CC)Oc1ccc([N+](=O)[O-])cc1 (stereo unspecified) | inactive: -12.6% [at 42.5 µM]
N=C(N)N[N+](=O)[O-] | inactive: 4.19%
N#CBr | inactive: -7.13%
Cc1ccc([N+](=O)[O-])cc1[N+](=O)[O-] | inactive: -2.25% and inactive: -1.43%
CP(=O)(O)OCCC[Si](O)(O)O | inactive: -16.4%
CC(C)OP(C)(=O)OC(C)C | inactive: -4.92% and inactive: -0.236%
O=[N+]([O-])OCC(CO[N+](=O)[O-])(CO[N+](=O)[O-])CO[N+](=O)[O-] | inactive: 2.95%
O=[N+]([O-])[O-].[NH4+] | inactive: 1.68% and inactive: -3.08%
CCOP(=O)(CC)OCC | inactive: 1.07%
Nc1cc([N+](=O)[O-])cc([N+](=O)[O-])c1O | inactive: -11.1%
C/C1=C2N=C(/C=C3N=C(/C(C)=C4\[N-][C@@](C)([C@@H]5N=C1[C@](C)(CCC(=O)NC[C@@H](C)OP(=O)([O-])O[C@H]1[C@@H](O)[C@@H](n6cnc7cc(C)c(C)cc76)O[C@@H]1CO)[C@H]5CC(N)=O)[C@@](C)(CC(N)=O)[C@@H]4CCC(N)=O)[C@@](C)(CC(N)=O)[C@@H]\3CCC(N)=O)C(C)(C)[C@@H]/2CCC(N)=O.[C-]#N.[Co+3] | inactive: 0.407% [at 42.5 µM]
COc1ccc([N+](=O)[O-])cc1[N+](=O)[O-] | inactive: 0.176%
CCN(CC)CCCl | inactive: 1.05%
COP(C)(=O)OC | inactive: -12.6% and inactive: 5.86%
[NH4+].[O-][Cl+3]([O-])([O-])[O-] | inactive: -3.58%
Cc1c([N+](=O)[O-])cccc1[N+](=O)[O-] | inactive: 9.61% and inactive: 6.07%
Cc1ccc([N+](=O)[O-])c([N+](=O)[O-])c1 | inactive: 3.67%
CC(C)N(CCO)C(C)C | inactive: 6.33%
CN(C)CCCl | inactive: -1.32%
